# Measured values from patent US20140171466A1, “PAIN MANAGEMENT IN SICKLE CELL ANEMIA” (priority 2012, published 2014).
# Key:
# human μ opioid receptor = human μ opioid receptor (Homo sapiens, UniProt P35372); experiment: Receptor binding, [3H]DAMGO displacement; details: read-out: Receptor Binding Ki (nM) μ
# mu opioid receptor = mu opioid receptor (Homo sapiens, UniProt P35372); experiment: [35S]GTPγS binding assay μ; details: for EC50: read-out: [35S]GTPγS μ EC50
# human NOP receptor = human NOP receptor (Homo sapiens, UniProt P41146); experiment: Receptor binding, [3H]nociceptin displacement, CHO cell membranes; details: read-out: Receptor Binding Ki (nM) NOP
smiles,measurement,setting,value
O=C1Cc2ccccc2N1C1CCN(C2CCC3CCCc4cccc2c43)CC1 (stereo not drawn),Ki,human μ opioid receptor,79.8 nM
same,EC50,mu opioid receptor,0.129 µM
CC(C)[C@H]1CC[C@@H](N2CCC3(CC2)C(=O)N(CC(=O)OC(C)(C)C)CN3c2ccccc2)CC1,Ki,human NOP receptor,0.97 nM
same,Ki,human μ opioid receptor,32.7 nM
same,[35S]GTPγS μ % Stim,mu opioid receptor; full agonist DAMGO as standard,29 ± 6%
same,EC50,mu opioid receptor,0.064 µM
